Results on one compound are retold here after patent publication US20240384325A1, “SPLIT AND POOL IDENTIFICATION OF RBP TARGETS (SPIDR)” (California Institute of Technology, priority 2023, published 2024).

The target of test [1] is T1, mTOR kinase (Homo sapiens, UniProt P42345).
T1 construct: endogenous in cells; host or cells: HEK293T (ATCC, CRL-3216)
Briefly: Quantitative mass spectrometry of global protein levels in torin-treated versus untreated cells. The test is classed as cell-based. As to conditions: HEK293T cells, 250 nM Torin-1, LC-MS/MS, vs control. The text has this: To ensure that mTOR inhibition robustly leads to translational suppression of TOP-containing mRNAs, global protein levels in torin-treated and untreated cells were quantified using quantitative mass spectrometry (see Materials and Methods, below, for details) to determine protein level changes globally. […] Indeed, this translational suppression was directly proportional to the strength of the TOP-motif contained within the 5′-UTR of each mRNA (FIG. 6B).
For the protein changes CDF plots, we first selected for the 2000 highest expressed genes based on previous RNA-seq data84. […] The input samples were down sampled to 20M reads prior to TPM calculation. Feature counts was used to calculate read overlaps with hg38 protein coding refseq genes and further converted to TPM values. […]
5 million cells each of control and 250 nM Torin-1 treated HEK cells were lysed in 250 μL Mass Spec Lysis Buffer (8M urea, 75 mM NaCl, 50 mM Tris pH 8.0, 1 mM EDTA) for 30 min at room temperature. Samples were then clarified by centrifugation at 23000 g for 5 minutes, and the protein content in the supernatant was measured by BCA assay (ThermoFisher, #PI23227). […]
The Torin treated and control total lysate samples were measured in a Data Independent Acquisition (DIA) mode. MS1 Spectra were measured with a resolution of 120,000, an AGC target of 5e6 and a mass range from 350 to 1650 m/z. […]

For test [2], the target named is T1, mTOR kinase. In words: SPIDR mapping of RBP-RNA binding in torin-treated versus control cells. As to conditions: HEK293T cells, 250 nM torin, 18 hours, vs solvent-only control. The test is classed as cell-based. As to the method: To explore the mechanism of translational suppression of TOP-containing mRNAs upon mTOR inhibition, HEK293T cells were treated with torin, a drug that inhibits mTOR kinase. SPIDR was adapted to map multiple independent samples within a single split- and -pool barcoding experiment (FIG. 6A, FIG. 15; see Materials and Methods, below, for details) and used this approach to perform SPIDR on >50 distinct RBPs, including LARP1, numerous translational initiation factors, and 4 negative controls in both torin-treated and untreated conditions.
Torin-1 treatment HEK293T cells were treated at a final concentration of 250 nM Torin-1 (Cell Signaling Technology, #14379) in standard HEK293T media for 18 hours prior to UV-crosslinking and harvesting.
Compared to previously published approaches, the number of barcodes per round was reduced, but the rounds of split and pool barcoding was increased. […] For example, for the K562 cells pooled experiment, 6 rounds of 24 barcodes were used for combinatorial barcoding (with a scheme of Odd, Even, Odd, Even, Odd, Terminal tag). For the HEK293T cells mTOR inhibition experiment, 6 rounds of 36 barcodes were used for combinatorial barcoding to achieve sufficient barcode complexity. Of the 36 barcodes used in round one of the ligations, 18 were used to label the control condition and the remaining 18 were used to label the torin treated condition. The samples were then pooled together for the remaining 5 rounds of ligation.
Background corrected bedgraphs were generated from control and +Torin conditions for each RBP in each condition. […] To normalize for possible detection bias due to fewer antibody beads in one condition versus the other we adjusted the map value by the ratio of antibody beads as determined by number of bead clusters corresponding to each antibody in each respective condition. Number of antibody (bead clusters) were defined and calculated using the same values used to generate the split bam files for each protein (options: minimum number of oligos=3, fraction unique=0.8, max number of RNAs in clusters=100). […]

SMILES strings stand for the structures.

For `CCC(=O)N1CCN(c2ccc(-n3c(=O)ccc4cnc5ccc(-c6cnc7ccccc7c6)cc5c43)cc2C(F)(F)F)CC1` [torin, Torin-1], the “level of proteins encoded from TOP motif-containing mRNAs upon torin-treatment” value on mTOR kinase [1] is “striking reduction”. In addition, at mTOR kinase [2], the “change in number of RNA reads purified by LARP1 upon mTOR inhibition” value is on record as “no global change” and the “increase in overall number of RNA reads for 4EBP1 upon torin treatment relative to control” value is above 20 fold. Besides, at mTOR kinase [2] (p-value <5.4×10-16, Mann-Whitney), the “increase in levels of binding of LARP1 at TOP mRNAs upon mTOR inhibition” value turned out to be 1.7 fold.
